Source: patent US10238645B2 (priority 2009, dated 2019)

Experiments:
[1] = Open label pharmacokinetic study GW01-0804: serum pharmacokinetics; conditions: both, human, in vivo; for concentration at 21 day (trough, pre-application): Geometric LS Mean, Secondary steady-state analysis (BLQ replaced with LLOQ/2), N 15
[2] = rats
Procedure: A combined fertility and peri- and post-natal development study was conducted in rats.

[3] = cell culture; cited from earlier work

SMILES	Tmax [1]	concentration at 21 day (trough, pre-application) ([1]; Reference (trough serum concentration), Day 22 vs. Day 21)	concentration at 21 day (trough, pre-application) ([1]; Test (trough serum concentration), Day 21 vs. Day 14)	Growth, fertility or reproduction ([2]; daily oral, doses up to 57×MRHD based on AUC)	Growth, fertility, reproduction or post-natal development ([2]; oral, up to 6 mg/kg/day (50×MRHD based on AUC))	Direct antiviral activity [3]
CC(C)Cn1cnc2c(N)nc3ccccc3c21 [Imiquimod (R-837)]	12 h	–	–	–	–	–
CC(C)Cn1cnc2c(N)nc3ccccc3c21 [imiquimod, 1-(2-methylpropyl)-1H-imidazo[4,5-c]quinolin-4-amine]	–	0.113 ng/mL	0.113 ng/mL	no effects	No effects	no direct antiviral activity
